Two substances from patent publication US20130078284A1, “PHARMACEUTICAL FORMULATIONS” (priority 2005, published 2013) can be followed below.

The conditions of the series: human, in vivo; for CL/F (maximum) / CL/F (mean ± SD) / CL/F (minimum): 130 mg; for AUCt (maximum) / AUCt (mean ± SD) / AUCt (minimum) / AUC∞ (maximum) / AUC∞ (mean ± SD) / AUC∞ (minimum) / Cmax (maximum) / Cmax (mean ± SD) / Cmax (minimum) / Tmax (maximum) / Tmax (mean ± SD) / Tmax (minimum) / t1/2 (harmonic mean, with pseudo-standard deviation where printed) / t1/2 (maximum) / t1/2 (minimum): 135 mg.

Regarding “2-[4-(4-chlorobenzoyl)phenoxy]-2-methyl-propanoic acid Choline salt [Formulation 5]”, the “CL/F (maximum)” value turned out to be 1.65 L/h, the “CL/F (mean ± SD)” value came to 0.95 ± 0.29 L/h, the “CL/F (minimum)” value was determined as 0.55 L/h and the “AUCt (maximum)” value amounted to 224.7 µg·h/mL. The “AUCt (mean ± SD)” value was found to be 143.5 ± 41.1 µg·h/mL, the “AUCt (minimum)” value was determined as 77.9 µg·h/mL, the “AUC∞ (maximum)” value is 238.4 µg·h/mL and the “AUC∞ (mean ± SD)” value is 148.4 ± 44.5 µg·h/mL. Further, the “AUC∞ (minimum)” value came out at 78.8 µg·h/mL, the “Cmax (maximum)” value turned out to be 8010 ng/mL, the “Cmax (mean ± SD)” value came to 6400 ± 930 ng/mL and the “Cmax (minimum)” value was determined as 4600 ng/mL. Besides, the “Tmax (maximum)” value is 10.0 h; the “Tmax (mean ± SD)” value is given as 5.0 ± 2.1 h; the “Tmax (minimum)” value was 3.0 h; the “t1/2 (harmonic mean, with pseudo-standard deviation where printed)” value was 21.34 ± 7.36 h. The “t1/2 (maximum)” value is on record as 34.83 h and the “t1/2 (minimum)” value stood at 11.98 h.

In the case of “2-[4-(4-chlorobenzoyl)phenoxy]-2-methyl-propanoic acid Choline salt [Formulation 6]”, the “CL/F (maximum)” value was 1.99 L/h, the “CL/F (mean ± SD)” value amounted to 1.29 ± 0.38 L/h, the “CL/F (minimum)” value came out at 0.75 L/h and the “AUCt (maximum)” value worked out at 170.6 µg·h/mL. Also, the “AUCt (mean ± SD)” value is 108.4 ± 34.0 µg·h/mL, the “AUCt (minimum)” value turned out to be 64.6 µg·h/mL, the “AUC∞ (maximum)” value is 174.2 µg·h/mL and the “AUC∞ (mean ± SD)” value came out at 110.4 ± 34.9 µg·h/mL. Moreover, the “AUC∞ (minimum)” value is 65.4 µg·h/mL, the “Cmax (maximum)” value came out at 8430 ng/mL, the “Cmax (mean ± SD)” value was determined as 4030 ± 1460 ng/mL and the “Cmax (minimum)” value was determined as 1960 ng/mL. For the same substance, the “Tmax (maximum)” value is listed as 18.0 h; the “Tmax (mean ± SD)” value is given as 7.9 ± 3.3 h; the “Tmax (minimum)” value was found to be 4.0 h; the “t1/2 (harmonic mean, with pseudo-standard deviation where printed)” value was 18.71 ± 5.14 h. Also, the “t1/2 (maximum)” value is 25.01 h and the “t1/2 (minimum)” value was 9.71 h.
